Among the data in ChEMBL document CHEMBL1127734, “Selective ligands for rat A3 adenosine receptors: structure-activity relationships of 1,3-dialkylxanthine 7-riboside derivatives” (J Med Chem, 1994) are Ki and inhibition values, retold here.

Amino acid sequences for entries named in this document (tags omitted).
UniProt P25099, whole entry: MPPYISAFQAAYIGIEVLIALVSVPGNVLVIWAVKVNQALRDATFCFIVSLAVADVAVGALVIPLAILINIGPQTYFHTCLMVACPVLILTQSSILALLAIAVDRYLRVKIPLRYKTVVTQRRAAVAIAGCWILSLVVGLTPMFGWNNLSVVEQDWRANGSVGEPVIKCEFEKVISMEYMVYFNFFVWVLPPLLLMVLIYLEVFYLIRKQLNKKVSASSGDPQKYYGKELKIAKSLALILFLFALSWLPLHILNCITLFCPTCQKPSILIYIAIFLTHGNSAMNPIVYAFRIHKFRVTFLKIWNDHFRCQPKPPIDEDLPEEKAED
UniProt P28647, whole entry: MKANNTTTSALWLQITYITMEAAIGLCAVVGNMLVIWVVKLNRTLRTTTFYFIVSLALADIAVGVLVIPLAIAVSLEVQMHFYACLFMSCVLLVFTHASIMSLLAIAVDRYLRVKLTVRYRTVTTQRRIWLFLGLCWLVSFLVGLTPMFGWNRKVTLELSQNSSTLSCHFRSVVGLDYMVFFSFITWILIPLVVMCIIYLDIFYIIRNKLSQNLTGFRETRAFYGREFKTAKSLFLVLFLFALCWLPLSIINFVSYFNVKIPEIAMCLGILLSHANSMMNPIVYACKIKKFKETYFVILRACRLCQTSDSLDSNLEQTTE
UniProt P30543, whole entry: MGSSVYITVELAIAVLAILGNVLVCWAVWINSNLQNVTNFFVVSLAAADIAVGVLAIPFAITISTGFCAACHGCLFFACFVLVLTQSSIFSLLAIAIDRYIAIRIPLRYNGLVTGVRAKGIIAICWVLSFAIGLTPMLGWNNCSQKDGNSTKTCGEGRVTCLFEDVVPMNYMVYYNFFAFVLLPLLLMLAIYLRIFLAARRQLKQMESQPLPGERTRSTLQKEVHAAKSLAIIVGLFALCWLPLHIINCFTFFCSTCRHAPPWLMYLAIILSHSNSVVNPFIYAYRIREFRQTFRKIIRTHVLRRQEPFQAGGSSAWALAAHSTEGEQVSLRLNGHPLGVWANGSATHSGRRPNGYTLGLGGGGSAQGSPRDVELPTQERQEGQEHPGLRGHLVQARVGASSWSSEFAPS

Holding throughout (format): cell membranes
One test has as its target Adenosine receptor A1 (Rattus norvegicus, UniProt P25099). Description: Tested for the displacement of specific [3H]PIA in rat brain membranes of A1 receptor.
The target in the next test is Adenosine receptor A3 (Rattus norvegicus, UniProt P28647). The test can be described thus: Displacement of specific [125]AB-MECA binding in membranes of CHO cells stably transfected with the rat A3-cDNA. The procedure, abridged:
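CHO cells stably expressing rat A3 receptor, grown in F-12 with 10% FBS at 37 °C, 5% CO2; membranes incubated with [125I]AB-MECA (0.3 nM final) in 50 mM Tris/10 mM MgCl2/1 mM EDTA pH 8.26, duplicate, 1 h at 37 °C, then filtered. Inhibitors diluted from DMSO (≤1% final). Nonspecific binding with 40 μM R-PIA.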

The target in test [1] is Adenosine receptor A2a (Rattus norvegicus) (UniProt P30543). Description: Displacement of specific [3H]- CGS-21680 in rat striatal membranes A2a receptor at 10e-4 M concentration. The note with it: Membrane. The procedure, abridged: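 Rat striatal membranes; [3H]CGS 21680 binding at A2a receptors. Adenosine deaminase (3 units/mL) present during membrane preparation, which includes a 30 °C, 30 min incubation, and during radioligand incubation.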

Usually Ki stands for the dissociation constant of the complex between target and ligand, obtained from inhibition or displacement. A high value points to a looser hold on the target. By inhibition is commonly meant the share of the control response that was lost under treatment. A higher inhibition goes with a response far below the control.

Structures are written as SMILES.

Take `CCCCn1c(=O)c2c(ncn2C2O[C@H](C(=O)NC)[C@@H](O)[C@H]2O)n(CCCC)c1=O` (stereo partly drawn): the inhibition constant (Ki) was 37.3 µM at Adenosine receptor A1 and 0.229 µM on Adenosine receptor A3. The same compound returned an inhibition in test [1] of 19%.
